In patent publication EP4428121A1, “MODULATORS OF SORTILIN ACTIVITY” (Vesper Bio Aps, priority 2023, dated 2024):

Target: T1, Human (6-His)Sortilin (Homo sapiens, UniProt Q99523)
T1 construct: purchased RnD Systems
T1 sequence (Q99523 78-755 limits assumed): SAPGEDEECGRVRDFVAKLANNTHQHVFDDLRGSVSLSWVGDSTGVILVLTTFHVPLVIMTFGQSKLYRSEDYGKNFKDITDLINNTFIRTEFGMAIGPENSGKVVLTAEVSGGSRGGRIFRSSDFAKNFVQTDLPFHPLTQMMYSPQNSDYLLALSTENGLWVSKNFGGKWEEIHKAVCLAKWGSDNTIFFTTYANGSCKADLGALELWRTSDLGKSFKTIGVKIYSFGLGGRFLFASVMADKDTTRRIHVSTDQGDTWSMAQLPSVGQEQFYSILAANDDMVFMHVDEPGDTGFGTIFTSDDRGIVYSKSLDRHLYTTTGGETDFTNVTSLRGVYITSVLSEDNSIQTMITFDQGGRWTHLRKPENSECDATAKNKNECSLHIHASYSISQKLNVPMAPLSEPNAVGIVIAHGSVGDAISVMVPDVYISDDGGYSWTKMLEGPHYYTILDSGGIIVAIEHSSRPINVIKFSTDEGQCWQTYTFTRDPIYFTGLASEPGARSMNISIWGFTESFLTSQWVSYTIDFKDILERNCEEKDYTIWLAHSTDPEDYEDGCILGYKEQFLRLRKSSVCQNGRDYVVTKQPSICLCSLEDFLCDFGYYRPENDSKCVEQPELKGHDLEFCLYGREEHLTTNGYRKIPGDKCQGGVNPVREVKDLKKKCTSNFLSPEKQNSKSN
Experiment: Human Sortilin GCI (Grating-Coupled Interferometry) binding assay
Conditions: Creoptix WAVE-RAPID, single concentration (usually 1 µM, 10 µM or 100 µM), immobilised Human (6-His)Sortilin, 1:1 kinetic binding model

`CC(C)(C)CCC(Nc1cncc2ccccc12)c1nnn[nH]1` (racemic) [Example 32, N-(4,4-dimethyl-1-(1H-tetrazol-5-yl)pentyl)isoquinolin-4-amine] was tested, and the Kd was 262 nM.

`CC(C)(C)CC(Nc1cnc2ccccc2c1)c1nnn[nH]1` (racemic) [Example 44, N-(3,3-dimethyl-1-(1H-tetrazol-5-yl)butyl)quinolin-3-amine] gave a Kd of 6210 nM.

Work on `CC(C)(C)CC(Nc1ccc2ccccc2n1)c1nnn[nH]1` (racemic) [Example 54, N-(3,3-dimethyl-1-(1H-tetrazol-5-yl)butyl)quinolin-2-amine] yielded a Kd of 7380 nM.

`CC(C)(C)CC[C@H](Nc1cncc2ccccc12)c1nn[nH]n1` (single isomer, unassigned) [Example 93] gave a Kd of 84.1 nM.

`CC(C)(C)CC[C@@H](Nc1cncc2ccccc12)c1nn[nH]n1` (single isomer, unassigned) [Example 94] showed a Kd of 1300 nM.
